ChEMBL document CHEMBL3351542, “Nonpeptide small molecule agonist and antagonist original leads for neuropeptide FF1 and FF2 receptors” (J Med Chem, 2014)

Species on record: Homo sapiens
Test: Selectivity ratio of Ki for human MOR to Ki for human NPFF1 receptor

N=C(N)NCC(=O)NCC1(Nc2cccc3ccccc23)CCN(Cc2ccccc2)CC1
Ratio Ki: 7

COc1cc(NC2(CNC(=O)CNC(=N)N)CCN(Cc3ccccc3)CC2)cc(OC)c1
Ratio Ki: 7
